From PMC7179119, “A New Positron Emission Tomography Probe for Orexin Receptors Neuroimaging” (Molecules, 2020)

Protein sequences, listed by entry. Tags and fused reporters are not part of them.
UniProt O43613, whole entry: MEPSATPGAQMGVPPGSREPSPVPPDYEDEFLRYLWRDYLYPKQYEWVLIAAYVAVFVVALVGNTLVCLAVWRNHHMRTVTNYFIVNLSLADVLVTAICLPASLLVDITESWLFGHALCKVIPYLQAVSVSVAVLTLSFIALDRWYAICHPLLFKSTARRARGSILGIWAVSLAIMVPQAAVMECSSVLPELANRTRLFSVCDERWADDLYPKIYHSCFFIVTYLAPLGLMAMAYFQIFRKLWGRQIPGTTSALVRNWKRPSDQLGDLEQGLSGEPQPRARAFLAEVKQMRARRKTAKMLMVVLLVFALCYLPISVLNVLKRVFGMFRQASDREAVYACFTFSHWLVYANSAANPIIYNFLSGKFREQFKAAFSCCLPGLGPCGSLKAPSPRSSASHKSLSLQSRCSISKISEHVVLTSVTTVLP

Biological target: T1, human recombinant orexin OX1 receptors (Homo sapiens, UniProt O43613)
T1 construct: host or cells: CHO-S cells
Test: Human Orexin GPCR Binding (Agonist Radioligand) Assay, [125I] Orexin A competition
Experimental: Radioligand competition binding assays were performed by Panlabs, Eurofins Pharma Discovery Services. Briefly, human recombinant orexin OX1 receptors expressed in CHO-S cells were used in modified HEPES buffer pH 7.4. […] Orexin A for 60 minutes at 25 °C. […] Orexin A specifically binding. Human recombinant OX2 receptors were used in modified HEPES buffer pH 7.4. […] Orexin A for 180 minutes at 25 °C. […] Orexin A specifically bound.

Structure (SMILES): Cc1ccc(-n2nccn2)c(C(=O)N2CCN(c3nc4cc(Cl)ccc4o3)CC[C@H]2C)c1 [Suvorexant, reference compound]
- IC50: 27 nM
